Measured values reported in patent US7432303B2, “Chalcone and its analogs as agents for the inhibition of angiogenesis and related disease states” (James and Emory University, priority 1999, dated 2008).

System: SVR cells
Experiment: SVR cell assay: cell numbers counted at 48 hours, percent inhibition versus control

## N#CC(C#N)=Cc1ccccc1
1 μg/ml, 10,000 SVR cells in 24 well dish
  Percent Inhibition at a Specified Density (μg/ml): 1: 19.4%
3 μg/ml, 10,000 SVR cells in 24 well dish
  Percent Inhibition at a Specified Density (μg/ml): 3: 15.9%
6 μg/ml, 10,000 SVR cells in 24 well dish
  Percent Inhibition at a Specified Density (μg/ml): 6: 23.7%

Some compounds may have been tested in ways that are not shown here.
